Measurements as given in patent US10040791B2, “Isoxazole derivative as mutant isocitrate dehydrogenase 1 inhibitor” (Daiichi Sankyo Company, Limited, priority 2014, dated 2018).
pIC50: −log10 of the molar value.

Chains of the proteins cited; added tags and fusions are not shown.
UniProt O75874, whole entry R132H: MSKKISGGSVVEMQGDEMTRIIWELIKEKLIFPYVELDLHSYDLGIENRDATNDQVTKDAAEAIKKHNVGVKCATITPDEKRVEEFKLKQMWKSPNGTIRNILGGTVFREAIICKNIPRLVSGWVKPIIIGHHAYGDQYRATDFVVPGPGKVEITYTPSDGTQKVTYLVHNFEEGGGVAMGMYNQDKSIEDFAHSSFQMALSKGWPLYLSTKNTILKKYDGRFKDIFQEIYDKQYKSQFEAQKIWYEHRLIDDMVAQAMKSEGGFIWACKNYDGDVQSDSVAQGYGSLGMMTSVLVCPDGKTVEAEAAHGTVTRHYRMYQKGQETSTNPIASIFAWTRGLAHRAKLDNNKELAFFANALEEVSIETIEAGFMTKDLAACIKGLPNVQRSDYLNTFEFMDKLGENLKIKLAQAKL

These compounds were tested against IDH1R132H (Homo sapiens (Human), UniProt O75874, R132H) (assay: Inhibitory activity against IDH1R132H enzyme (NADPH detection, WST-8)). Conditions: 12 nM, residual NADPH detected with WST-8, read-out: Test Example 1 IDH1 R132H IC50.
Format: biochemical

Row | SMILES | pIC50
1 | Cc1cn(C(=O)c2c(-c3c(Cl)cc(Cl)cc3Cl)noc2C2(C)CC2)c2cccc(/C=C/C(=O)O)c12 [Example 43, (2E)-3-(3-Methyl-1-{[5-(1-methylcyclopropyl)-3-(2,4,6-trichlorophenyl)-1,2-oxazol-4-yl]carbonyl}-1H-indol-4-yl)prop-2-enoic acid] | 7.74
2 | C=CC(=O)N1CCC(c2onc(-c3c(C)cc(Cl)cc3C)c2C(=O)n2cc(C)c3c(/C=C/C(=O)O)cccc32)CC1 [Example 122] | 7.49
3 | C=CC(=O)N1CCN(c2onc(-c3c(Cl)cccc3Cl)c2C(=O)n2ccc3c(/C=C/C(=O)O)cccc32)C2(CC2)C1 [Example 147, (2E)-3-(1-{[5-[7-Acryloyl-4,7-diazaspiro[2.5]oct-4-yl]-3-(2,6-dichlorophenyl)-1,2-oxazol-4-yl]carbonyl}-1H-indol-4-yl)prop-2-enoic acid] | 7.70
4 | C=CC(=O)N1CCC(c2onc(-c3c(Cl)cccc3Cl)c2C(=O)n2cc(C)c3c(/C=C/C(=O)O)cccc32)CC1 [Example 108] | 7.46
5 | C=CC(=O)N1CC2(CC2)N(c2onc(-c3c(F)cccc3Cl)c2C(=O)n2cc(C)c3c(/C=C/C(=O)O)cccc32)C[C@H]1C [Example 162, (2E)-3-[1-({5-[(6R)7-Acryloyl-6-methyl-4,7-diazaspiro[2.5]oct-4-yl]-3-(2-chloro-6-fluorophenyl)-1,2-oxazol-4-yl}carbonyl)-3-methyl-1H-indol-4-yl]prop-2-enoic acid] | 7.70
6 | C[C@@H]1CCC[C@H](C)N1c1onc(-c2c(Cl)cccc2Cl)c1C(=O)n1ccc2c(/C=C/C(=O)O)cccc21 [Example 137, (2E)-3-(1-{[3-(2,6-Dichlorophenyl)-5-(cis-2,6-dimethylpiperidin-1-yl)-1,2-oxazol-4-yl]carbonyl}-1H-indol-4-yl)prop-2-enoic acid] | 7.55
7 | CN(C)c1onc(-c2c(Cl)cccc2Cl)c1C(=O)n1ccc2c(/C=C/C(=O)O)cccc21 [Example 133, (2E)-3-(1-{[3-(2,6-Dichlorophenyl)-5-(dimethylamino)-1,2-oxazol-4-yl]carbonyl}-1H-indol-4-yl)prop-2-enoic acid] | 8.00
8 | C=CC(=O)N1CC2(CC2)N(c2onc(-c3c(Cl)cccc3OC)c2C(=O)n2ccc3c(/C=C/C(=O)O)cccc32)C[C@H]1CC [Example 161, (2E)-3-[1-({5-{(6R)7-Acryloyl-6-ethyl-4,7-diazaspiro[2.5]oct-4-yl]-3-(2-chloro-6-methoxyphenyl)-1,2-oxazol-4-yl}carbonyl)-1H-indol-4-yl]prop-2-enoic acid] | 7.46

Other lines, results leading:

Row | pIC50 | SMILES
9 | 8.15 | COC1(c2onc(-c3c(Cl)cc(Cl)cc3Cl)c2C(=O)n2ccc3c(/C=C/C(=O)O)cccc32)COC1 [Example 3, (2E)-3-(1-{[5-(3-Methoxyoxetan-3-yl)-3-(2,4,6-trichlorophenyl)-1,2-oxazol-4-yl]carbonyl}-1H-indol-4-yl)prop-2-enoic acid]
10 | 7.43 | Cn1cc(C(=O)c2c(-c3c(Cl)cc(Cl)cc3Cl)noc2C(C)(C)C)c2ccc3ccc(C(=O)O)cc3c21 [Example 167, 3-{[5-tert-Butyl-3-(2,4,6-trichlorophenyl)-1,2-oxazol-4-yl]carbonyl}-1-methyl-1H-benzo[g]indole-8-carboxylic acid]
11 | 6.83 | C=CC(=O)N1CCCC(c2onc(-c3c(Cl)cc(Cl)cc3Cl)c2C(=O)n2ccc3c(/C=C/C(=O)O)cccc32)C1 (stereo not shown) [Example 96]
12 | 7.82 | CNC(C)(C)c1onc(-c2c(Cl)cc(Cl)cc2Cl)c1C(=O)n1cc(C)c2c(/C=C/C(=O)O)cccc21 [Example 84, (2E)-3-[3-Methyl-1-({5-[2-(methylamino)propan-2-yl]-3-(2,4,6-trichlorophenyl)-1,2-oxazol-4-yl]carbonyl}-1H-indol-4-yl)prop-2-enoic acid]
13 | 7.39 | C=CC(=O)N1CC2(CC2)N(c2onc(-c3c(F)cccc3Cl)c2C(=O)n2ccc3c(/C=C/C(=O)O)cccc32)C[C@H]1C [Example 156, (2E)-3-[1-({5-[(6R)7-Acryloyl-6-methyl-4,7-diazaspiro[2.5]oct-4-yl]-3-(2-chloro-6-fluorophenyl)-1,2-oxazol-4-yl}carbonyl)-1H-indol-4-yl]prop-2-enoic acid]
